The target of this experiment is PD-1 (UniProt Q15116). The experiment can be described thus: flow cytometry of cells incubated with 150 µg/mL fluorescently labelled antibody in PBS. (Flow cytometry measures light scatter and fluorescence of single cells or particles in a stream.)

Protein sequences, listed by entry. Tags and fused reporters are not part of them. Residues count along the entry.
UniProt Q15116, 25-288 limits assumed: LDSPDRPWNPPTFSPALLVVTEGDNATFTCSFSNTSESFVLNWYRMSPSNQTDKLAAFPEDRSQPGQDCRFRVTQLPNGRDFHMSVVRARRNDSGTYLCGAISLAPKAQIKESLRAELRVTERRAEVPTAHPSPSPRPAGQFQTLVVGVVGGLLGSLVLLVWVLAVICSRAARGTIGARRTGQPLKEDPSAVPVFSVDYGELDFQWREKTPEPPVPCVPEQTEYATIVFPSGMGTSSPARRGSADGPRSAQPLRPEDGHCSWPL

This note sets out measurements from patent publication US11718827.

The substance monoclonal antibody Keytruda returned a percent of cells blocked of 90%.
